According to PubChem BioAssay AID686970 (National Center for Advancing Translational Sciences (NCATS), 2013):
This is a selection; strong and weak results do not stand in their true shares. Results filed as inconclusive are left out. A call without a number means that no potency is given here. Calls of active or inactive are those of the source. Calls follow the shape of the dose curve; as a rule, active = well fitted cell-killing curve with a large enough effect; inconclusive = small, poorly fitted or top-dose-only effect, or effect the other way; inactive = flat fitted curve, though single readings scatter.

assay: qHTS for induction of synthetic lethality in tumor cells producing 2HG: qHTS for the HT-1080-NT fibrosarcoma cell line; conditions: HT-1080-NT fibrosarcoma viability, CellTiter-Glo ATP luminescence, 48 h; series mostly up to 46.1 µM;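 also: NT is the 2HG producing partner of a matched IDH1 knockdown line; nearly all actives have a fitted effect of over 55% in size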

SMILES	Potency
O=C(OC1CN2CCC1CC2)c1cccc2[nH]cnc12 (configuration not stated)	inactive
CC(C)NC(=O)NP(=O)(Oc1ccccc1)Oc1ccccc1	inactive
CC(C)c1ccc(OP(=O)(Nc2ccccn2)Oc2ccccc2F)cc1 (configuration not stated)	inactive
COC(=O)C1(C)COP(=O)(N2CCCCCC2)OC1 (configuration not stated)	inactive
ClCCSc1nnc(-c2cccnc2)o1	inactive
Cc1ccc2nc3c(c(C)c2c1)CC(C(Cl)Cl)S3 (configuration not stated)	inactive
[N-]=[N+]=NC1CCCCC1NC(=O)c1cc([N+](=O)[O-])cc([N+](=O)[O-])c1 (configuration not stated)	inactive
Cc1ccc(OP(=O)(Nc2ccc([N+](=O)[O-])cn2)Oc2ccc(C)cc2)cc1	inactive
C[As](=O)(O)c1cccc(C(=O)O)c1	inactive
O=[As](O)(c1ccc(O)cc1)c1ccccc1O	inactive
COc1ccc(N/C(=N/P(=O)(N2CCOCC2)N2CCOCC2)N2CCOCC2)cc1	inactive
O=[N+]([O-])c1cc(Oc2ccc([N+](=O)[O-])cc2C(F)(F)F)cc([N+](=O)[O-])c1	inactive
COc1ccc2nc(NP(=O)(c3ccccc3)c3ccccc3)sc2c1	inactive
COc1cc(I)ccc1[As](=O)(O)O	inactive
O=P1(N(CCCl)CCCl)OCCCN1CCCl (configuration not stated)	inactive
O=P1(N(CCCl)CCCl)Nc2ccccc2N1	inactive

SMILES	Potency
Cc1cc(=O)[nH]c(N[N+](=O)[O-])n1	inactive
Cc1c2c(nc3ccccc13)SC(C(Cl)Cl)C2 (configuration not stated)	inactive
CCC(C)N(CC(C)C)C(=S)SC(NC(C)=O)C(Cl)(Cl)Cl (configuration not stated)	inactive
CCOC(=O)c1ccc(NC(=O)C(C)(CCl)SC)cc1 (configuration not stated)	inactive
O=C(OC1CN2CCC1CC2)c1cccc([N+](=O)[O-])c1 (configuration not stated)	inactive
O=C(COc1ccccc1)OC1CN2CCC1CC2 (configuration not stated)	inactive
O=C(Nc1ccncc1[N+](=O)[O-])c1ccc([N+](=O)[O-])cc1[N+](=O)[O-]	inactive
O=C(O)C(=O)c1ccc(N(CCCl)CCCl)cc1	inactive
COP1(=S)c2c(C)nn(CCC#N)c2N=C(c2ccc(F)cc2)N1C (configuration not stated)	inactive
COC(=O)C1(C)COP(=O)(N2CCCC2)OC1 (configuration not stated)	inactive
O=[N+]([O-])c1ccc(Nc2ccc(Oc3ccc([N+](=O)[O-])cc3[N+](=O)[O-])cc2)c([N+](=O)[O-])c1	inactive
O=P(Nc1ccccn1)(c1cccc2ccccc12)c1cccc2ccccc12	inactive
Cc1cc(SC(NC=O)C(Cl)(Cl)Cl)ncn1 (configuration not stated)	inactive
CCOC(=O)Nc1cccc([As](=O)(O)O)c1	inactive
Cc1cc(SC(NC(=O)c2ccccc2)C(Cl)(Cl)Cl)nc(C(C)C)n1 (configuration not stated)	inactive
COP(=O)(OC)N1CC1c1ccccc1 (configuration not stated)	inactive
